{
  "source": "patent US8592152B2",
  "about": "“Gene detection assay for improving the likelihood of an effective response to an EGFR antagonist cancer therapy” (Genentech, Inc., priority 2000, dated 2013)",
  "key": {"[1]": {"test_system": "HER2-overexpressing metastatic breast cancers", "conditions": "patients with HER2-overexpressing metastatic breast cancers that received extensive prior anti-cancer therapy; cited from earlier work"}, "metastatic breast cancer [2]": {"test_system": "metastatic breast cancer", "test": "FISH/clinical outcome study: single agent Herceptin as 1st line therapy", "assay_type": "in vivo, human", "experimental": "(§1) The Clinical Testing Assay (CTA) involves two separate IHC assays performed with either monoclonal antibodies 4D5 (after protease digestion of the formalin fixed sample) or CB11 (after heat treatment of the formalin fixed sample). Subjects were eligible if either assay was scored at 2+ or 3+. If both were performed, the final score was the higher of the two results.\n(§2) Thus, formalin-fixed cut sections stored between 2.5 and 4.5 years from 540 subjects provided the sample pool for this study."}, "metastatic breast cancer [3]": {"test_system": "metastatic breast cancer", "test": "FISH/clinical outcome study: single agent Herceptin as 2nd or 3rd line therapy", "assay_type": "in vivo, human", "experimental": "as §1, §2"}, "[4]": {"conditions": "FISH+, 3+ subgroup, 2nd or 3rd line, N = 107"}, "[5]": {"conditions": "FISH-, 2+/3+ combined, 2nd or 3rd line, N = 142"}, "[6]": {"conditions": "FISH-, 3+ subgroup, 2nd or 3rd line, N = 107"}},
  "data": [
    {"substance": "Herceptin®: recombinant humanized IgG1 version of the murine anti-HER2 antibody 4D5, commercially available from Genentech", "values": [
      {"measurement": "clinical activity", "setting": "[1]", "result": "clinically active"},
      {"measurement": "response rate", "setting": "metastatic breast cancer [2]; 3+, 2+ subjects, regardless of FISH", "result": 27, "unit": "%"},
      {"measurement": "response rate", "setting": "metastatic breast cancer [2]; FISH+, 2+/3+ combined", "result": 41, "unit": "%"},
      {"measurement": "No response (number of subjects)", "setting": "metastatic breast cancer [2]; FISH+, 2+/3+ combined, N = 62", "result": 24},
      {"measurement": "Response (number of subjects)", "setting": "metastatic breast cancer [2]; FISH+, 2+/3+ combined, N = 62", "result": 17},
      {"measurement": "response rate", "setting": "metastatic breast cancer [3]; 3+ subjects, regardless of FISH", "result": 17, "unit": "%"},
      {"measurement": "No response (number of subjects)", "setting": "metastatic breast cancer [3]; FISH+, 2+ subgroup, 2nd or 3rd line, N = 35", "result": 12},
      {"measurement": "No response (number of subjects)", "setting": "metastatic breast cancer [3]; FISH+, 2+/3+ combined, 2nd or 3rd line, N = 142", "result": 84},
      {"measurement": "No response (number of subjects)", "setting": "metastatic breast cancer [3]; [4]", "result": 72},
      {"measurement": "Response (number of subjects)", "setting": "metastatic breast cancer [3]; [4]", "result": 18},
      {"measurement": "response rate", "setting": "metastatic breast cancer [3]; FISH-, 2+ subgroup, 2nd or 3rd line", "result": 0, "unit": "%"},
      {"measurement": "Response (number of subjects)", "setting": "metastatic breast cancer [3]; FISH-, 2+ subgroup, 2nd or 3rd line, N = 35", "result": 0},
      {"measurement": "response rate", "setting": "metastatic breast cancer [3]; FISH-, 2+/3+ combined, 2nd or 3rd line", "result": 0, "unit": "%"},
      {"measurement": "No response (number of subjects)", "setting": "metastatic breast cancer [3]; [5]", "result": 37},
      {"measurement": "Response (number of subjects)", "setting": "metastatic breast cancer [3]; [5]", "result": 0},
      {"measurement": "response rate", "setting": "metastatic breast cancer [3]; FISH-, 3+ subgroup, 2nd or 3rd line", "result": 0, "unit": "%"},
      {"measurement": "No response (number of subjects)", "setting": "metastatic breast cancer [3]; [6]", "result": 17},
      {"measurement": "Response (number of subjects)", "setting": "metastatic breast cancer [3]; [6]", "result": 0}
    ]}
  ]
}
